# Patent publication US8697372B2, “Method for determining the binding of a given compound to a membrane receptor” (CIS Bio International, priority 2009, dated 2014)
# The chains behind the UniProt entries cited, without tags or fusion partners.
# UniProt P14416, whole entry, looked up: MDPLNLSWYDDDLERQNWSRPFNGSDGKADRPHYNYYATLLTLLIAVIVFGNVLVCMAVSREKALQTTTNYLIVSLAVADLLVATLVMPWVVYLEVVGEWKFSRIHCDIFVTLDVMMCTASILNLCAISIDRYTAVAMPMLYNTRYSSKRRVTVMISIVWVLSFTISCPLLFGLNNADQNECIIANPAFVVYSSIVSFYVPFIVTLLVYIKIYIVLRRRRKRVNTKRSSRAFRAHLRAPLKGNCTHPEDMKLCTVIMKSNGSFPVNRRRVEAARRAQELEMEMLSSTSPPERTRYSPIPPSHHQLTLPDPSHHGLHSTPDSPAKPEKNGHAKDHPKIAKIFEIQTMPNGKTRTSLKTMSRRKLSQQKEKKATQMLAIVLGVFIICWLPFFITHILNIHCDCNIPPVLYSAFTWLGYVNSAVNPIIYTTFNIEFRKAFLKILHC
# Target: Dopamine D2 receptor implicated in the heterodimer with Delta Opioid (Homo sapiens, UniProt P14416)
# Assay: Competitive test against the red antagonist of the dopamine D2 receptor on the heterodimer, Delta Opioid receptor labeled with SNAP-Lumi4Tb
# Conditions: 3 nM red antagonist of the dopamine D2 receptor, HEK293T cells, FIG. 11
smiles,measurement,value
O=C(CCCN1CCC2(CC1)C(=O)NCN2c1ccccc1)c1ccc(F)cc1,Competition with the fluorescent reference ligand and binding to the heterodimers,compete with the fluorescent reference ligand and bind to the heterodimers
